Patent publication US12031087B2, “Oxygenated solvents for improved production of oil and gas” (Board of Regents, The University of Texas System, priority 2019, dated 2024)

Experiments:
[1] = 1.0 wt % in RB, water/oil ratio 7:3, 347 K, at least 7 days
[2] = IFT between oil and stable surfactant solutions; assay type: physicochemical; conditions: oil vs 1 wt % surfactant solution in RB, 347 K, atmospheric pressure
[3] = 1 wt % surfactant in RB, 347 K
[4] = Density and viscosity of 3p, 3pRB and surfactant solution; assay type: physicochemical; conditions: 2-EH-4PO-15EO 1 wt % in RB, 347 K and atmospheric pressure

Substance: 2-ethylhexanol-4 propylene oxide-15 ethylene oxide [2-EH-4PO-15EO]
- phase behavior of oil/2-EH-4PO-15EO/RB [1]: A small amount of macroemulsion was observed
- IFT (mN/m) [2]: 0.21 mN/m
- stability [3]: stable
- density of the surfactant solution [4]: 1039 kg/m^3
